Experimental findings from PubChem BioAssay AID2174 (The Scripps Research Institute Molecular Screening Center, 2009) are described below.

Protein sequences, listed by entry. Tags and fused reporters are not part of them.
UniProt O75608, whole entry: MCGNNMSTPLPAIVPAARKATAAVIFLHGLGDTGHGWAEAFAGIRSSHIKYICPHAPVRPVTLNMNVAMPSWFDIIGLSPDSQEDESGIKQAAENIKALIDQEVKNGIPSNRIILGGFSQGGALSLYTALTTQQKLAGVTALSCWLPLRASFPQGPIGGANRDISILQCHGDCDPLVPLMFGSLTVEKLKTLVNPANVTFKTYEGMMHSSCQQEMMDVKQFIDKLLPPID

SMILES strings stand for the structures. The entries are a selection whose mix differs from that of the whole data set. Some structures show a salt or complex split into parts, the way the source records it. The source made the active and inactive calls.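 How the source made its calls: active means inhibition above the mean of all tested compounds plus 3 SD, set per campaign (cut at about 14% in these data); inactive means the rest.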

For this test, the target named is Acyl-protein thioesterase 1 (Homo sapiens) (UniProt O75608). The test can be described thus: inhibition of human lysophospholipase 1 – biochemical, fluorescence polarization, FP-Rh probe ABPP, counter-screen for PME1 inhibitor project, primary screen (AID 2174).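 Further: inhibitors block serine hydrolase probe labeling of LYPLA1 so polarization falls; 0% = enzyme with DMSO and 100% = wells lacking LYPLA1.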 To be noted: recombinant LYPLA1, FP-Rh probe fluorescence polarization; at 5.9 µM; active compounds read high.
For `CP(=O)(Nc1ccc2c(c1)OCCO2)Oc1ccccc1` (stereo not drawn), the inhibition is inactive: 0.15%.
On to `Cc1ccccc1NP(C)(=O)Nc1ccccc1C`, for which the inhibition is inactive: -2.2%.
Consider `CP(=O)(Nc1ccc(SC(F)(F)F)cc1)Oc1ccc(F)cc1` (stereo not drawn), for which the inhibition was inactive: -0.67%.
Take `CCOP(C)(=S)SCC(=O)NC(C)(CC)C(=O)O` (stereo not drawn): the inhibition is inactive: 3.49%.
For `O=[N+]([O-])c1cc([N+](=O)[O-])c(NCC2CCS(=O)(=O)C2)c([N+](=O)[O-])c1` (stereo not drawn), the inhibition is inactive: -5.1%.
With `COc1ccc(OP(C)(=O)Nc2cccc(Br)c2)cc1` (stereo not drawn), the inhibition was inactive: 4.55%.
Regarding `COc1ccc(NP(C)(=O)Oc2ccccc2OC)cc1` (stereo not drawn), the inhibition is inactive: -1.73%.
Turning to `CN(C)CCOC(=O)C(O)(c1ccccc1)C1CCCCC1` (stereo not drawn), the inhibition was inactive: -0.3%.
Turning to `CCN(CC)CCCOC(=O)C(O)(c1ccccc1)C1CCCCC1` (stereo not drawn), the inhibition was inactive: 0.52%.
`CCCCCOc1ccc(NP(C)(=O)Oc2ccc(Cl)cc2Cl)cc1` (stereo not drawn): the inhibition is inactive: 0.38%.
The same measure for `O=[N+]([O-])c1cc([N+](=O)[O-])c(OC2CCCCC2O)c([N+](=O)[O-])c1` (stereo not drawn): inactive: 0.56%; for `CP(=O)(Nc1ccccc1)Oc1ccc(F)cc1` (stereo not drawn): inactive: 3.04%.
With `COc1ccc(OP(C)(=O)Nc2ccc(SC(F)(F)F)cc2)cc1` (stereo not drawn), the inhibition was inactive: -3.41%.
The value for `CCOC(=O)c1ccc(NP(C)(=O)Oc2ccc(F)cc2)cc1` (stereo not drawn) was inactive: 0.79%; that for `O=C(OCCN1CCN(CCOCc2ccccc2)CC1)C(O)(c1ccccc1)c1ccccc1` was inactive: -0.37%.
With `O=C(OC1CN2CCC1CC2)c1ccc([N+](=O)[O-])cc1` (stereo not drawn), the inhibition is inactive: 2.64%.
`COc1ccc2c(c1O)-c1c(O)c(OC)cc3c1[C@H](C2)[N+](C)(C)CC3.O=[N+]([O-])c1cc([N+](=O)[O-])c([O-])c([N+](=O)[O-])c1[O-]`: the inhibition is inactive: 1.2%.
Consider `CC(C)c1ccc(OP(C)(=O)Nc2ccc(SC(F)(F)F)cc2)cc1` (stereo not drawn), for which the inhibition was inactive: -0.23%.
The value for `CP(=O)(Nc1ccccc1F)Oc1ccccc1` (stereo not drawn) was inactive: 3.9%.
`Cc1c(NP(C)(=O)Oc2ccc(C(C)C)cc2)c(=O)n(-c2ccccc2)n1C` (stereo not drawn): the inhibition is inactive: -3.47%.
As to `O=[N+]([O-])c1cc([N+](=O)[O-])c(Nc2ccccn2)c([N+](=O)[O-])c1`, the inhibition was inactive: 0.41%.
As to `CCc1ccc(OP(C)(=O)O)cc1`, the inhibition was inactive: 2.85%.
On to `COc1ccccc1OP(C)(=O)Nc1ccc(C)cc1C` (stereo not drawn), for which the inhibition is inactive: -0.36%.
The same measure for `CP(=O)(Nc1ccccn1)Oc1ccccc1` (stereo not drawn): inactive: -1.91%.
Turning to `COc1ccccc1OP(C)(=O)Nc1ccc(Br)cc1` (stereo not drawn), the inhibition is inactive: 0.2%.
The value for `CN(C)CCOC(=O)C(O)(c1ccccc1)C1CCCC1` (stereo not drawn) was inactive: 1.26%; that for `COc1ccc(OP(C)(=O)Nc2ccccn2)cc1` (stereo not drawn) was inactive: -1.33%; that for `Cc1nc2ccc3ccccc3c2o1.O=[N+]([O-])c1cc([N+](=O)[O-])c(O)c([N+](=O)[O-])c1` was inactive: -0.17%.
Turning to `CP(=O)(Nc1ccc(Cl)cc1Cl)Oc1ccccc1` (stereo not drawn), the inhibition is inactive: -0.26%.
As to `CP(=O)(OCCOc1ccccc1)OCCOc1ccccc1`, the inhibition is inactive: 1.76%.
On to `Cc1cc(C)cc(OP(C)(=O)Nc2cccc(C(F)(F)F)c2)c1` (stereo not drawn), for which the inhibition is inactive: -3.01%.
For the molecule `COc1ccc(OP(C)(=O)Nc2ccccc2Br)cc1` (stereo not drawn), the inhibition is inactive: -0.65%.
As for `COc1ccccc1OP(C)(=O)Nc1ccc(C)c(C)c1` (stereo not drawn), the inhibition is inactive: 2.32%.
Take `Nc1ccc2c(ccc3cccnc32)n1.O=[N+]([O-])c1cc([N+](=O)[O-])c(O)c([N+](=O)[O-])c1`: the inhibition is inactive: -0.77%.
Take `CP(=O)(OC12CC3CC(CC(C3)C1)C2)OC12CC3CC(CC(C3)C1)C2`: the inhibition was inactive: 2.1%.
`CCOC(=O)c1ccc(NP(C)(=O)Oc2ccc(Cl)cc2)cc1` (stereo not drawn): the inhibition was inactive: 2.89%.
For the molecule `CP(=O)(Nc1ccc(Cl)cc1)Oc1ccc(F)cc1` (stereo not drawn), the inhibition is inactive: -3.17%.
The same measure for `COc1ccccc1OP(C)(=O)Nc1ccccc1Br` (stereo not drawn): inactive: 0.62%; for `CC(C)(C)c1ccc(OP(C)(=O)O)cc1`: inactive: -2.85%; for `CN(C)C(=O)c1c([N+](=O)[O-])cc([N+](=O)[O-])cc1[N+](=O)[O-]`: inactive: 1.62%.
As for `COc1ccc(OP(C)(=O)Nc2ccc(Br)cc2)cc1` (stereo not drawn), the inhibition was inactive: -0.87%.
Take `CCN(CC)CC(O)COC(=O)C(O)(c1ccccc1)C1CCCCC1` (stereo not drawn): the inhibition is inactive: 0.74%.
The value for `CCc1ccc(OP(C)(=O)Nc2cccnc2)cc1` (stereo not drawn) was inactive: -1.88%; that for `CP(=O)(Oc1ccccc1)N1CCOC1=O` (stereo not drawn) was inactive: 1.67%; that for `O=C(OCCCN1CCCC1)C(O)(c1ccccc1)C1CCCCC1` (stereo not drawn) was inactive: 1%.
Turning to `COc1ccccc1OP(C)(=O)Nc1c(C)n(C)n(-c2ccccc2)c1=O` (stereo not drawn), the inhibition is inactive: -0.69%.
The value for `CCOP(C)(=S)SCC(=O)NC(C)C(=O)O` (stereo not drawn) was inactive: -3.2%; that for `O=[N+]([O-])c1cc([N+](=O)[O-])c(O)c([N+](=O)[O-])c1.c1ccc(Oc2ccncc2)cc1` was inactive: 4.23%.
The same measure for `CCOC(=O)c1ccc(NP(C)(=O)Oc2ccc(OC)cc2)cc1` (stereo not drawn): inactive: -2.25%; for `CP(=O)(Nc1ccccn1)Oc1ccc(Cl)cc1` (stereo not drawn): inactive: 0.47%.
In the case of `CP(=O)(Oc1ccccc1)OC(c1ccccc1)C(F)(F)F` (stereo not drawn), the inhibition was inactive: 0.5%.
In the case of `CP(=O)(Nc1ccc(SC(F)(F)F)cc1)Oc1ccc(Cl)cc1` (stereo not drawn), the inhibition was inactive: 1.03%.
Turning to `Cc1cccc(C)c1OP(C)(=O)Nc1ccc(SC(F)(F)F)cc1` (stereo not drawn), the inhibition is inactive: 0.54%.
For the molecule `Cc1cc(C)cc(OP(C)(=O)Nc2ccc(SC(F)(F)F)cc2)c1` (stereo not drawn), the inhibition was inactive: -1.5%.
In the case of `CP(=O)(NC(=O)Nc1ccccc1)Oc1ccccc1` (stereo not drawn), the inhibition was inactive: 1.93%.
In the case of `CCc1ccc(OP(C)(=O)N2CCN(c3ccc([N+](=O)[O-])cc3)CC2)cc1` (stereo not drawn), the inhibition was inactive: 6.4%.
The value for `CP(=S)(Nn1cnnc1)Oc1ccccc1` (stereo not drawn) was inactive: 1.07%; that for `COc1ccccc1OP(C)(=O)Nc1ccccc1` (stereo not drawn) was inactive: 4.16%; that for `CP(=O)(Nc1ccccc1Br)Oc1ccccc1` (stereo not drawn) was inactive: 0.35%.
Take `CCOC(=O)c1ccc(NP(C)(=O)Oc2ccccc2)cc1` (stereo not drawn): the inhibition was inactive: -3.04%.
For `Cc1ccc(NP(C)(=O)Oc2ccccc2)c(C)c1` (stereo not drawn), the inhibition was inactive: -1.37%.
The value for `COc1ccccc1OP(C)(=O)Nc1ccc(C)cc1` (stereo not drawn) was inactive: -1.27%.
Turning to `COc1ccc(OP(C)(=O)Nc2cccc(F)c2)cc1` (stereo not drawn), the inhibition is inactive: 1.51%.
The same measure for `COc1ccccc1OP(C)(=O)Nc1cc(Cl)ccc1C` (stereo not drawn): inactive: -0.37%; for `Cc1cc(C)cc(OP(C)(N)=O)c1` (stereo not drawn): inactive: -1.78%; for `O=[N+]([O-])c1cc([N+](=O)[O-])c(Nc2cccnc2)c([N+](=O)[O-])c1`: inactive: 0.43%.
The value for `Cc1cccc(C)c1OP(C)(N)=O` (stereo not drawn) was inactive: -1.08%.
Take `CC(C)(C)c1ccc(OP(C)(=O)Nc2ccc(SC(F)(F)F)cc2)cc1` (stereo not drawn): the inhibition is inactive: -1.69%.
Regarding `O=[N+]([O-])c1ccc2c(c1)C=Nc1ccccc1O2`, the inhibition is inactive: 3.04%.
For the molecule `CCN(CC)CCCOC(=O)C(O)(c1ccccc1)c1ccccc1`, the inhibition was inactive: 2.77%.
Turning to `Cc1cc(C)cc(OP(C)(=O)Nc2ccccn2)c1` (stereo not drawn), the inhibition is inactive: 0.78%.
For `CP(=O)(Nc1cccc(Br)c1)Oc1ccccc1` (stereo not drawn), the inhibition was inactive: 2.81%.
Take `Cc1ccc(C)c(NP(C)(=O)Oc2ccccc2)c1` (stereo not drawn): the inhibition is inactive: -0.94%.
In the case of `COc1ccccc1OP(C)(=O)Nc1cccc(Br)c1` (stereo not drawn), the inhibition was inactive: -0.81%.
On to `Cc1cc(C)cc(OP(C)(=O)Nc2ccc(C)cc2C)c1` (stereo not drawn), for which the inhibition was inactive: -2.25%.
`CCOC(=O)c1ccc(NP(C)(=O)Oc2cc(C)cc(C)c2)cc1` (stereo not drawn): the inhibition is inactive: 2.38%.
As for `CC1=NCCc2c1[nH]c1ccccc21.O=[N+]([O-])c1cc([N+](=O)[O-])c(O)c([N+](=O)[O-])c1`, the inhibition was inactive: 0.02%.
Take `O=C(O)c1cccc(Nc2c([N+](=O)[O-])cc([N+](=O)[O-])cc2[N+](=O)[O-])c1`: the inhibition was inactive: 0.67%.
Turning to `CN1CCCCC1COC(=O)C1(O)c2ccccc2CCc2ccccc21` (stereo not drawn), the inhibition was inactive: -1.63%.
The same measure for `COc1ccccc1OP(C)(=O)Nc1c(C)cccc1C` (stereo not drawn): inactive: -2.05%.
Regarding `CCCOc1ccc(NP(C)(=O)Oc2ccc(Cl)cc2)cc1` (stereo not drawn), the inhibition was inactive: -0.28%.
As to `CP(=O)(Nc1ccc(SC(F)(F)F)cc1)Oc1ccccc1` (stereo not drawn), the inhibition was inactive: -0.8%.
In the case of `CCOC(=O)C(CC)C1=NC(C)(C)Cc2ccccc21.O=[N+]([O-])c1cc([N+](=O)[O-])c(O)c([N+](=O)[O-])c1` (stereo not drawn), the inhibition is inactive: 0.75%.
Turning to `CC1=C2N=C(C=C3N=C(C(C)=C4[N-][C@@](C)([C@@H]5N=C1[C@](C)(CCC(=O)NC[C@@H](C)OP(=O)([O-])O[C@H]1[C@@H](O)[C@@H](n6cnc7cc(C)c(C)cc76)O[C@@H]1CO)[C@H]5CC(N)=O)[C@@](C)(CC(N)=O)[C@@H]4CCC(N)=O)[C@@](C)(CC(N)=O)[C@@H]3CCC(N)=O)C(C)(C)[C@@H]2CCC(N)=O.[C-]#N.[Co+3]`, the inhibition was inactive: -1.82%.
With `O=[N+]([O-])c1cc([N+](=O)[O-])c(Nc2nnnn2CCO)c([N+](=O)[O-])c1`, the inhibition is inactive: -2.88%.
As to `O=[N+]([O-])c1cc([N+](=O)[O-])c(-c2cnn(-c3ccccc3)c2)c([N+](=O)[O-])c1`, the inhibition was inactive: 0.21%.
For the molecule `Cc1nc2ccc3ccccc3c2s1.O=[N+]([O-])c1cc([N+](=O)[O-])c(O)c([N+](=O)[O-])c1`, the inhibition was inactive: 1.06%.
`O=[N+]([O-])c1cc([N+](=O)[O-])c(-n2nnc3ccccc32)c([N+](=O)[O-])c1`: the inhibition is inactive: 5.47%.
